In patent US9290490B2 (Merck Sharp & Dohme Corp., priority 2011, dated 2016):

Biological target: recombinant human GST-Syk (Homo sapiens (Human), UniProt P43405)
Assay: Homogeneous Time-Resolved Fluorescence (HTRF) Assay for the Recombinant Human Syk Enzyme
Assay type: biochemical
Conditions: read-out: rhSyk Activity (IC50); recombinant human GST-Syk 5 pM, ATP 25 μM

Structure (SMILES)	IC50
CCCCOC(=O)[C@H]1CC[C@H](C(C)(O)c2ncc(-c3cc(C)cc(Nc4nccc(C(F)F)n4)c3)s2)CC1 (single isomer, unassigned)	100 to 1000 nM
Cc1cc(Nc2nccc(C)n2)cc(-c2cnc(C(C)(O)C3CCC(C(=O)O)C(C)C3)s2)c1 (single isomer, unassigned)	< 100 nM
Cc1cc(Nc2nccc(C(F)(F)F)n2)cc(-c2cnc(C(O)(CO)[C@H]3CC[C@H](C(=O)O)CC3)s2)c1 (single isomer, unassigned)	< 100 nM
Cc1cc(Nc2nccc(C)n2)cc(-c2cnc(C(C)(O)[C@H]3CC[C@@H](C(=O)O)[C@@H](C)C3)s2)c1 (single isomer, unassigned)	< 100 nM
CCC(O)(c1ncc(-c2cc(C)cc(Nc3nccc(C(F)(F)F)n3)c2)s1)[C@H]1CC[C@H](C(=O)O)CC1 (single isomer, unassigned)	< 100 nM
Cc1cc(Nc2nccc(C)n2)cc(-c2cnc(C(O)(CO)[C@H]3CC[C@H](C(=O)O)CC3)s2)c1 (single isomer, unassigned)	< 100 nM
CCC(O)(c1ncc(-c2cc(C)cc(Nc3nccc(C)n3)c2)s1)[C@H]1CC[C@H](C(=O)O)CC1 (single isomer, unassigned)	< 100 nM
CCOC(=O)C1CCC(C(C)(O)c2ncc(-c3cc(C)cc(Nc4nccc(C(F)(F)F)n4)c3)s2)CC1C (single isomer, unassigned)	100 to 1000 nM
Cc1cc(Nc2ncc(F)c(C)n2)cc(-c2cnc(C(C)(O)C3CC(CC(=O)O)C3(C)C)s2)c1 (single isomer, unassigned)	< 100 nM
Cc1cc(Nc2nccc(C(F)(F)F)n2)cc(-c2cnc(C(C)(O)C3CC(CC(=O)O)C3(C)C)s2)c1 (single isomer, unassigned)	< 100 nM
Cc1cc(Nc2nccc(C(F)(F)F)n2)cc(-c2cnc(C(C)(O)C3CCC(C(=O)O)C(C)C3)s2)c1 (single isomer, unassigned)	< 100 nM
Cc1cc(Nc2nccc(C(F)F)n2)cc(-c2cnc(C(O)([C@H]3CC[C@H](C(=O)O)CC3)C(F)(F)F)s2)c1 (single isomer, unassigned)	< 100 nM
Cc1cc(Nc2nccc(C(F)(F)F)n2)cc(-c2cnc(C(O)([C@H]3CC[C@H](C(=O)O)CC3)C(F)(F)F)s2)c1 (single isomer, unassigned)	< 100 nM
Cc1cc(Nc2nccc(C)n2)cc(-c2cnc(C(C)(O)C3CC(CC(=O)O)C3(C)C)s2)c1 (single isomer, unassigned)	< 100 nM
CCOC(=O)[C@@H]1CC[C@@H](C(C)(O)c2ncc(-c3cc(C)cc(Nc4nccc(C(F)(F)F)n4)c3)s2)C[C@@H]1C (single isomer, unassigned)	100 to 1000 nM
Cc1cc(Nc2nccc(C(F)(F)F)n2)cc(-c2cnc(C(O)C3(O)CCC(C(=O)O)CC3)s2)c1 (single isomer, unassigned)	< 100 nM
Cc1cc(Nc2nccc(C(F)(F)F)n2)cc(-c2cnc(C(O)(C(C)C)[C@H]3CC[C@H](C(=O)O)CC3)s2)c1 (single isomer, unassigned)	< 100 nM
Cc1cc(Nc2nccc(C(F)F)n2)cc(-c2cnc(C(C)(O)C3CCC(C(=O)O)C(C)C3)s2)c1 (single isomer, unassigned)	< 100 nM
CC(C)C(O)(c1ncc(-c2cccc(Nc3nccc(C(F)(F)F)n3)c2)s1)[C@H]1CC[C@H](C(=O)O)CC1 (single isomer, unassigned)	< 100 nM

Same assay, conditions: read-out: rhSyk Activity (IC50); recombinant human GST-Syk 5 pM, ATP 25 μM; tested form: TFA

Structure (SMILES)	IC50
Cc1cc(Nc2nccc(C(F)(F)F)n2)cc(-c2cnc(C(C)(O)C3CC4C(C3)C4C(=O)O)s2)c1 (single isomer, unassigned)	< 100 nM
Cc1cc(Nc2nccc(C)n2)cc(-c2cnc(C(C)(O)[C@H]3CC[C@H](c4nn[nH]n4)CC3)s2)c1 (single isomer, unassigned)	< 100 nM
Cc1cc(Nc2nccc(C(F)(F)F)n2)cc(-c2cnc(C(F)[C@H]3CC[C@H](C(=O)O)CC3)s2)c1 (single isomer, unassigned)	< 100 nM

Same assay, conditions: read-out: rhSyk Activity (IC50); recombinant human GST-Syk 5 pM, ATP 25 μM; tested form: ammonium salt

Structure (SMILES)	IC50
COc1ccnc(Nc2cc(C)cc(-c3cnc(C(C)(O)[C@H]4CC[C@H](C(=O)O)CC4)s3)c2)n1 (single isomer, unassigned)	< 100 nM
COc1nc(Nc2cc(C)cc(-c3cnc(C(C)(O)[C@H]4CC[C@H](C(=O)O)CC4)s3)c2)ncc1F (single isomer, unassigned)	< 100 nM
Cc1cc(Nc2nccc(OC(C)C)n2)cc(-c2cnc(C(C)(O)[C@H]3CC[C@H](C(=O)O)CC3)s2)c1 (single isomer, unassigned)	< 100 nM
COc1nc(Nc2cc(C)cc(-c3cnc(C(C)(O)[C@H]4CC[C@H](C(=O)O)CC4)s3)c2)ncc1Cl (single isomer, unassigned)	< 100 nM
Cc1cc(Nc2nccc(C(C)C)n2)cc(-c2cnc(C(C)(O)[C@H]3CC[C@H](C(=O)O)CC3)s2)c1 (single isomer, unassigned)	< 100 nM
